Drawing on US20050196403A1, this text covers IC50 for five molecules.

The target in one assay is HLA-A*0206 (Human). Briefly: competition vs 125I probe, purified HLA. As to conditions: remark: other sources report otherwise.
The target in another assay is HLA-A*2401 (human). Description: competition with 125I probe peptide, purified HLA class I.
A further assay deals with HLA-A*6802 (Human). Briefly: competition vs 125I probe, purified HLA. As to conditions: remark: other sources report otherwise.

B1: p53.129 … (10-mer) (peptide)
peptide: ALNKMFCQLA
With B1, in the assay with HLA-A*0206 (Human), the IC50 was determined as 4.62 µM.

B2: 52.0147 … CEA.531 (peptide)
peptide: TYLWWVNGQSL
As to B2, the IC50 with HLA-A*2401 (human) was determined as 92.3 nM.

B3: p53.132B4V9 KMFBQLAKV (peptide)
peptide: KMFBQLAKV
modifications: here or on the partner: B = alpha-amino butyric acid at position 4
For B3, the IC50 in the assay with HLA-A*6802 (Human) was determined as 8.89 µM.

B4: 57.0042 … CEA.533.Y2F9 (peptide)
peptide: LYWVNGQSF
For the molecule B4, the IC50 with HLA-A*2401 (human) was 15.8 nM.

B5: 52.0144 … CEA.353 (peptide)
peptide: TYLWWVNNQSL
B5 came in with an IC50 with HLA-A*2401 (human) of 46.2 nM.

In general, IC50 refers to the midpoint of a concentration-inhibition curve. Read a high IC50 as a need for much substance.
